Experimental data published in paper PMC11737796 (PLOS ONE, 2025).

Biological target: T1, recombinant murine RORγt LBD (Mus musculus, UniProt P51450)
T1 construct: 10nM purified HN-AVI-GST-TCS-mRORγ(aa256-516) was mixed with
T1 sequence (P51450 256-516): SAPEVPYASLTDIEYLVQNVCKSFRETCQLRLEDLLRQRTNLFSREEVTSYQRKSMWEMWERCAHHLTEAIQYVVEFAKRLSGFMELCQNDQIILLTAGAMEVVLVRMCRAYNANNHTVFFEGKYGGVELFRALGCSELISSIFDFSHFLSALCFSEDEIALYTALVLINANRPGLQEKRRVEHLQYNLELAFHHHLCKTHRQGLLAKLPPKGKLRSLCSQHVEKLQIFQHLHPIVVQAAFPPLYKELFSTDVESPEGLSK
Assay: Murine RORγt radioligand competition binding assay
Settings: raw points of replicate experiments
Method: The assay was run in white/clear polystyrene flat-bottom 384-well plates (Greiner, cat. No. 781095). Assays were carried out in 40 μl reaction volumes. 0.125 μl of a fixed concentration range of test ligands dissolved in DMSO were added to assay plates using an acoustic liquid dispenser.
The raw data from the radio-ligand and co-factor recruitment assays were transformed to % effect using the equation:
Compound % effect = 100*[(X-min)/(max-min)]
where X represents the effect in the presence of test compound and max and min are the effects in presence of the maximum and minimum controls respectively.
The data was plotted to generate concentration response profiles and the concentration-response curves were fitted to the data using the non-linear regression analysis; 4 parameter logistic smart fit method in the Analyser application of the Genedata® Screener software (Genedata, Inc., Basel, Switzerland). […] Ki was calculated from the IC50 value using the equation Ki = IC50/1+[L]/Kd)

## CC(=O)N1Cc2cc(S(C)(=O)=O)ccc2[C@@H]1C(=O)Nc1ccc(C(O)(C(F)(F)F)C(F)(F)F)cc1 [Compound 5]
-LOG10(Concentration) 5
  Mouse ligand binding Response (%): -101.256%
-LOG10(Concentration) 8.5
  Mouse ligand binding Response (%): -10.569%
